Where two headings read alike, the source gives them in different places.
Tests used:
[1] = test system: HCC1954; assay: CellTiter-Glo cytotoxicity of anti-HER2scFv XTEN drug conjugates with or without trastuzumab, HCC1954; assay type: cell-based; settings: HER2 positive but trastuzumab resistant HCC1954 cell line
Excerpt: The specific cytotoxic activity of anti-HER2scFv-3xMMAE-XTEN720 and anti-HER2scFv-3xDM1-XTEN720 were compared to their corresponding non-targeting XTEN432-3xMMAE and XTEN432-3xDM1 precursors for their ability to effect cytotoxicity in a CellTiter-Glo cell viability assay. Using a panel of HER2 expressing cell lines which included but not limited to SK-BR-3, BT474, NCI-N87, SK-OV-3 and HCC1954, the specificity of anti-HER2scFv-3xMMAE-XTEN720 and anti-HER2scFv-3xDM1-XTEN720 were further elucidated in the presence and absence of trastuzumab as competitor (FIG. 83 and FIG. 84). Briefly, HER2 positive cells were plated at 1×10^4 into each well of a 96-well microtiter plate and allowed to attach to the plate by an overnight incubation at 37° C., 5% CO2. The anti-HER2scFv-3xMMAE-XTEN720 and anti-HER2scFv-3xDM1-XTEN720 conjugates, with and without trastuzumab treatment, as well as XTEN432-3xMMAE and XTEN432-3xDM1 conjugates were all introduced into the plate in a dose range (in duplicate) and plate was incubated for 3 days at 37° C., 5% CO2. […] Luminescence signals were then read on a luminometer and an IC50s (half maximal inhibitory concentration) was calculated with GraphPad Prism software.

[2] = test system: Human BT474 Breast Carcinoma; assay: Planned efficacy and safety study of anti-HER2scFv XTEN drug conjugates and Kadcyla in BT474 xenograft (Example 46); assay type: in vivo, female athymic nu/nu mice; settings: 30 nmol/kg iv, expected
Excerpt: The following efficacy study is designed to decipher the effect of (1) MMAE versus DM1; (2) impact of MMAE clustered at the N-terminal close to the anti-HER2scFv targeting moiety versus MMAE evenly spaced on the CXTEN polymer; (3) impact of BSRS1; and performance of anti-HER2-XTEN drug conjugates in comparison to (4) benchmark Kadcyla.
Designated as Day 0, 48 mice bearing targeted tumor size of 100-150 mm^3 are selected from the 68 mice and sorted into 6 groups of 8 animals per group; with each group having approximately equivalent mean tumor volume.
Any clinical signs of distress, deaths or adverse events are also noted.

[3] = test system: Human NCI-N87 Gastric Carcinoma; assay: Planned efficacy and safety study of anti-HER2scFv XTEN drug conjugates and Kadcyla in NCI-N87 xenograft (Example 47); assay type: in vivo, female SCID mice; settings: 30 nmol/kg iv, expected
Excerpt: (§1) In the NCI-N87 xenograft model, 1x10^7 NCI-N87 cells are subcutaneously administered into the flank of 68 female SCID mice; while in the SK-OV-3 model, 1 mm^3 SK-OV-3 tumor fragment is subcutaneously implanted the flank of female athymic nu/nu mice. Designated as Day 0, 48 mice bearing targeted tumor size of 100-150 mm^3 are selected from the 68 mice and sorted into 6 groups of 8 animals per group; with each group having approximately equivalent mean tumor volume.
(§2) The endpoint for the SK-OV-3 study is defined as 2000 mm^3 or 30 days, whichever comes first. Percent tumor growth inhibition (% TGI) is calculated for each treatment group in both NCI-N87 and SK-OV-3 studies. […] Any clinical signs of distress, deaths or adverse events are also noted.

[4] = test system: SK-OV-3 Ovarian Carcinoma; assay: Planned efficacy and safety study of anti-HER2scFv XTEN drug conjugates and Kadcyla in SK-OV-3 xenograft (Example 47); assay type: in vivo, female athymic nu/nu mice; settings: 30 nmol/kg iv, expected
Excerpt: as §1, §2

[5] = test system: human BT474 breast cancer cells; settings: for % TGI: Day 30

Substance	cytotoxic activity [1]	efficacy versus vehicle [2]	efficacy versus vehicle [3]	efficacy versus vehicle [4]	% TGI ([5]; 30 nmol/kg iv)	% TGI ([5]; 100 nmol/kg iv)	% TGI ([5]; 300 nmol/kg iv)	tolerability, body weight ([5]; 30, 100 and 300 nmol/kg iv)
anti-HER2scFv-3xMMAE-XTEN720	strong cytotoxic activity	more efficacious than vehicle in inducing tumor stasis or regression	more efficacious than vehicle in inducing tumor stasis or regression	more efficacious than vehicle in inducing tumor stasis or regression	90%	91%	97%	well tolerated with no visible weight loss
anti-HER2scFv-3xDM1-XTEN720	strong cytotoxic activity	more efficacious than vehicle in inducing tumor stasis or regression	more efficacious than vehicle in inducing tumor stasis or regression	more efficacious than vehicle in inducing tumor stasis or regression	–	–	–	–

From patent US20180125988A1, “TARGETED XTEN CONJUGATE COMPOSITIONS AND METHODS OF MAKING SAME” (AMUNIX OPERATING INC., priority 2014, published 2018)
